Literature values as cited in US20080242544A1, “Phytoactive Composition” (priority 2004, published 2008).

Details: Table 5, no pH given; cited from earlier work

## MCPB
  Log Pow: 2.4
